# Test results published in patent US7498347B2, “Hydroxycarbonylphenyl substituted 4-(aminomethyl)-piperidine benzamides as 5HT4 antagonists” (Janssen Pharmaceutica, N.V., priority 2004, dated 2009).
# The chains behind the UniProt entries cited, without tags or fusion partners.
# UniProt Q13639, whole entry: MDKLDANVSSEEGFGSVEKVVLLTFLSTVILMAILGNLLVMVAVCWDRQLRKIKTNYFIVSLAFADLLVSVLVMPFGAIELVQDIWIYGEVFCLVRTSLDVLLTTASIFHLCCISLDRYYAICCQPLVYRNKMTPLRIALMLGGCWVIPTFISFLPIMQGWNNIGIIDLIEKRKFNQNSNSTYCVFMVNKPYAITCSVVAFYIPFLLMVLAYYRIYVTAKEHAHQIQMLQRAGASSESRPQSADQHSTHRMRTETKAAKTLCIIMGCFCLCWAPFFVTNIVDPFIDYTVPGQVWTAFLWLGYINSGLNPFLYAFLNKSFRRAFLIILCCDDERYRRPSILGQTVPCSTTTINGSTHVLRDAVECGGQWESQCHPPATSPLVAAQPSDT
# Tests used:
# [1] = Metabolic stability in liver microsomes, LC-MS analysis; details: compound 5 μM, microsomes 1 mg/ml, NADPH-generating system, 60 minutes at 37 degrees Celsius
# Method: Sub-cellular tissue preparations were made according to Gorrod et al. (Xenobiotica 5: 453-462, 1975) by centrifugal separation after mechanical homogenization of tissue. Liver tissue was rinsed in ice-cold 0.1 M Tris-HCl (pH 7.4) buffer to wash excess blood. Tissue was then blotted dry, weighed and chopped coarsely using surgical scissors. The tissue pieces were homogenized in 3 volumes of ice-cold 0.1 M phosphate buffer (pH 7.4).
# Tissue homogenates were centrifuged at 9000×g for 20 minutes at 4° C. The resulting supernatant was stored at −80° C. and is designated ‘S9’.
# The S9 fraction can be further centrifuged at 100.000×g for 60 minutes (4° C.). The resulting supernatant was carefully aspirated, aliquoted and designated ‘cytosol’. The pellet was re-suspended in 0.1 M phosphate buffer (pH 7.4) in a final volume of 1 ml per 0.5 g original tissue weight and designated ‘microsomes’.
# All sub-cellular fractions were aliquoted, immediately frozen in liquid nitrogen and stored at −80° C. until use.
# For the samples to be tested, the incubation mixture contained PBS (0.1M), compound (5 μM), microsomes (1 mg/ml) and a NADPH-generating system (0.8 mM glucose-6-phosphate, 0.8 mM magnesium chloride and 0.8 Units of glucose-6-phosphate dehydrogenase). Control samples contained the same material but the microsomes were replaced by heat inactivated (10 minutes at 95 degrees Celsius) microsomes. Recovery of the compounds in the control samples was always 100%.
# The mixtures were preincubated for 5 minutes at 37 degrees Celsius. The reaction was started at time point zero (t=0) by addition of 0.8 mM NADP and the samples were incubated for 60 minutes (t=60). The reaction was terminated by the addition of 2 volumes of DMSO. Then the samples were centrifuged for 10 minutes at 900×g and the supernatants were stored at room temperature for no longer as 24 hours before analysis. All incubations were performed in duplo. […]
# Metabolic stability was expressed as % metabolism of the compound after 60 minutes (equation given as example) of incubation in the presence of active microsomes (E(act))
# h5-HT4b = h5-HT4b (Homo sapiens, UniProt Q13639); test: 5HT4 antagonism: [3H]GR113808 binding to membranes of h5-HT4b-HEK 293 clone 9 cells; details: displacement of [3H]GR113808 0.1 nM, h5-HT4b-HEK 293 membranes, 30 min at 25° C.
# Method: h5-HT4b-HEK 293 clone 9 cells were cultured in 150 mm Petri dishes and washed twice with cold PBS. The cells were then scraped from the plates and suspended in 50 mM Tris-HCl buffer, pH 7.4 and harvested by centrifugation at 23,500 rpm for 10 minutes. The pellet was resuspended in 5 mM Tris-HCl, pH 7.4 and homogenized with an Ultra Turrax homogenizer. The membranes were collected by centrifugation at 30,000 rpm for 20 min, resuspended in 50 mM Tris-HCl pH 7.4 and stored at −80° C. For the experiment, assay mixtures (0.5 ml) contained 50 μl of the tritiated ligand (5-HT4 antagonist [^3H]GR113808 0.1 nM) and 0.4 ml membrane preparation (15 μg protein/ml). 50 μl of 10% DMSO was added for total binding. 50 μl of 1 μM of (+)-trans-(1-butyl-3-hydroxy-4-piperidinyl)methyl 8-amino-7-chloro-2,3-dihydro-1,4-benzodioxin-5-carboxylate (a proprietary 5HT4 agonist of Janssen Pharmaceutica) was added for determination of non-specific binding.
# The [^3H]GR113808 assay buffer was 50 mM HEPES-NaOH, pH 7.4. The mixtures were incubated for 30 min at 25° C. The incubation was terminated by filtration over a Unifilter 96 GF/B presoaked in 0.1% polyethylenimine, followed by six washing steps with 50 mM HEPES-NaOH, pH 7.4.
compound,measurement,setting,value
Cc1ccc(C(=O)NC[C@@H]2CCN(CCCOc3ccccc3C(=O)O)C[C@H]2O)c2c1OCCCO2,% metabolized (% metabolised compound after 60 minutes),[1]; tested form: H2O,6.5%
same,pIC50 (5HT4 antagonistic data),h5-HT4b; tested form: H2O,7.02
CO[C@@H]1CN(CCCOc2ccc(C(=O)O)cc2)CC[C@H]1CNC(=O)c1cc(Cl)c(Br)c2c1OCCCO2 (relative stereo),% metabolized (% metabolised compound after 60 minutes),"[1]; tested form: HCl, H2O (2:3)",20%
same,pIC50 (5HT4 antagonistic data),"h5-HT4b; tested form: HCl, H2O (2:3)",8.15
CO[C@@H]1CN(CCCOc2ccc(C(=O)O)cc2)CC[C@H]1CNC(=O)c1cc(F)cc2c1OCCCO2 (relative stereo),pIC50 (5HT4 antagonistic data),h5-HT4b,7.74
O=C(O)c1cccc(OCCCN2CC[C@@H](CNC(=O)c3cc(Cl)cc4c3OCCCO4)[C@H](O)C2)c1 (relative stereo),% metabolized (% metabolised compound after 60 minutes),[1],13.5%
same,pIC50 (5HT4 antagonistic data),h5-HT4b,7.5
